The assay addresses recombinant biotinylated BoLA-6*01301 (HD6) MHC-I heavy chain (cattle (Holstein)). Kind of assay: radioligand binding.

The values below come from PMC4225172.

pIC50: −log10 of the molar value.

The pIC50 is the IC50 on a negative log10 scale, so that one unit is a factor of ten.

“recombinant human β2m (from UniProt P61769 21-119) (natural protein)”: the pIC50 was 8.60.
